# According to PubChem BioAssay AID1835 (Johns Hopkins Ion Channel Center, 2009):
# The chains behind the UniProt entries cited, without tags or fusion partners. Where a name states a change or a piece, a line headed by the entry shows the natural chain unless it says otherwise.
# UniProt Q12809: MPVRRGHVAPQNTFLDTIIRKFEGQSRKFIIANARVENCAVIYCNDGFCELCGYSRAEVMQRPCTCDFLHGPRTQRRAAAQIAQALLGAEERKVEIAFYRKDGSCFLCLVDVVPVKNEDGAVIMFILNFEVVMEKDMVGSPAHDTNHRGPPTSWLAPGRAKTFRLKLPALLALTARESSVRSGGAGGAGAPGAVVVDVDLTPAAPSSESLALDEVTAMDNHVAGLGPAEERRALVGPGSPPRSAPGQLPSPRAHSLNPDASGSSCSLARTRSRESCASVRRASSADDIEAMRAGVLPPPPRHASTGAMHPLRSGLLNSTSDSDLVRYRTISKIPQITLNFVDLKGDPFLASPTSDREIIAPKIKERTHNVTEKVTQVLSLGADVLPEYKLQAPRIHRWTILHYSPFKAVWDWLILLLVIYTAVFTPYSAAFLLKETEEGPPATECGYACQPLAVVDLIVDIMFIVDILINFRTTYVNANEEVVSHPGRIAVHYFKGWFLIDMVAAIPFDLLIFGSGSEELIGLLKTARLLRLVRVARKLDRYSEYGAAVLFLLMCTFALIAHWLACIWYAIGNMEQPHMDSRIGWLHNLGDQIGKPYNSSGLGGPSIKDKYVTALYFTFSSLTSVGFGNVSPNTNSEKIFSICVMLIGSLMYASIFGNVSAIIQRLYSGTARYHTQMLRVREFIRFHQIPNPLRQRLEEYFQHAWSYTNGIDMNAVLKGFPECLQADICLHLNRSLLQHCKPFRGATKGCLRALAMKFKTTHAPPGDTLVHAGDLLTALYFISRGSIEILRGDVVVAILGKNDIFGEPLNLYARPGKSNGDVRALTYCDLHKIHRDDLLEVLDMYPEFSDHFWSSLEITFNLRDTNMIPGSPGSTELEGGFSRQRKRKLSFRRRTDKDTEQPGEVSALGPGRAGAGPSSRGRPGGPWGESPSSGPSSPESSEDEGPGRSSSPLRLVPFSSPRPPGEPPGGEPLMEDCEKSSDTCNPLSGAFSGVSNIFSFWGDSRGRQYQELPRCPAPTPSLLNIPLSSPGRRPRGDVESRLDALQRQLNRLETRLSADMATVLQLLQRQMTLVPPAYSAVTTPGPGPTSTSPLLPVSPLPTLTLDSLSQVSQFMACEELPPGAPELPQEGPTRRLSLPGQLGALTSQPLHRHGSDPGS
# This is a selection; strong and weak results do not stand in their true shares. Active and inactive are the calls of the source.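 Rule for the calls: active = median signal gain over dofetilide-blocked control wells reaching their mean plus 3 SD, so readout 1 at least 0; inactive = the rest.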
# Target: Voltage-gated inwardly rectifying potassium channel KCNH2 (Homo sapiens) (UniProt Q12809)
# Experiment: modulators restoring hERG flux under dofetilide – cell-based, thallium flux, duplicate retest, dofetilide IC70, confirmation (AID 1835)
# Details: hERG cell line, FluxOR thallium flux, dofetilide-blocked; at 10 µM; hits give high values
row,SMILES,"activity increase over dofetilide control, less the hit threshold"
1,Cc1ccc(NP(=O)(Oc2ccccc2F)Oc2ccccc2F)nc1,inactive: -6%
